Measured values taken from patent publication US20080026986A1, “REVERSAL OF THE SUPPRESSIVE FUNCTION OF SPECIFIC T CELLS VIA TOLL-LIKE RECEPTOR 8 SIGNALING” (priority 2006, published 2008).

System: antigen-specific Treg cells

**Q.** `CC(C)Cn1cnc2c(N)nc3ccccc3c21` [imiquimod, Imiquimod] was tested. Which “Reversal of the suppressive function of antigen-specific Treg cells” value did it give?
**A.** partial reversal
